Antibody variant affinities, Ab-95 light chain, assay 2

Target: peptide PDVDLGDISGINAS, taken from heptad repeat 2 (HR2) of SARS-CoV-2 spike.

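Phage display of a naive human antibody library on the peptide gave the parent. Library AAYL52 holds single substitutions and randomly drawn double and triple substitutions in the CDRs. Affinity was read by AlphaSeq, a pooled yeast mating assay with surface-displayed partners. Pairs that bind mate more often; barcode pairs of the diploids are counted by sequencing. Read counts were normalised to the haploid input and turned into Kd by a linear fit to BCL2-family pairs of known affinity, for each replicate. Mating was done three times.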

The variants keep the heavy chain, the linker and the frameworks of Ab-95 (scFv order VH, three GGGGS repeats, VL).
VH: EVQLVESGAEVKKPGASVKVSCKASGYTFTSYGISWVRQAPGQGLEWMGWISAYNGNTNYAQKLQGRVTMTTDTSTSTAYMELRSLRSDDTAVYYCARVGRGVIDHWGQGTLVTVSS
VL: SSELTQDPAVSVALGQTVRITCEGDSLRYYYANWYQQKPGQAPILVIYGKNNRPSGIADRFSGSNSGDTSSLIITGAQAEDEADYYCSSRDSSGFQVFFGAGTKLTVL

Changes read parent residue, position, new residue, counted from the first residue of the VL shown. Every variant below is changed at S26 of the VL (sequential numbering). Affinities are written as log10 Kd with Kd in nM; a lower number is a better binder. Averages over replicates are reported, and they cover detected replicates only. An entry "nd" has no value in the source: the pair was not observed among the diploids in that replicate. This suggests poor binding but is not conclusive. The list is sorted by this average, lowest first, undetected variants last. For reference, the parent read 2.31 as the reference entry and 2.25 as a member of this library.

Variant S26Q+Y31E showed 2.16, 1.89, 1.81 (mean 1.95; controls 2 of 9).
Variant S26A showed 2.18, 2.08, 1.84 (mean 2.03; controls 2 of 9).
Variant S26M+P54A+F95C showed 2.48, 2.79, 1.92 (mean 2.40; controls 1 of 9).
Variant S26P+R28T+Y31N showed 2.54, 2.53, 2.50 (mean 2.52; controls 4 of 9).
Variant D25P+S26K+G94E showed 2.47, 2.93, 2.28 (mean 2.56; controls 2 of 9).
Variant E23R+S26T+Q96N showed 2.69, 2.38, 2.61 (mean 2.56; controls 2 of 9).
Variant S26W+P54G+S92M showed 2.80, 2.16, 2.94 (mean 2.63; controls 4 of 9).
Variant S26L+P54K+F98I showed nd, nd, 2.87 (controls 1 of 9).
Variant E23W+S26V+Y30V showed 2.89, 3.21, 2.77 (mean 2.96; controls 2 of 9).
Variant S26M+P54R showed nd, 3.10, nd (controls 1 of 9).
Variant S26M+V97F showed nd, 3.34, 2.97 (mean 3.16; controls 3 of 9).
Variant S26K+Y30C+F95A showed nd, 3.17, nd (controls 0 of 9).
Variant S26C+S88A showed nd, 3.17, nd (controls 1 of 9).
Variant G24L+S26A+A32C showed 3.48, 3.13, 3.09 (mean 3.24; controls 3 of 9).
Variant S26H+L27I+N52V showed nd, 3.32, 3.18 (mean 3.25; controls 2 of 9).
Variant D25T+S26D+N51E showed 3.44, 3.18, 3.69 (mean 3.44; controls 3 of 9).
Variant S26K+S89N+V97S showed 3.47, nd, nd (controls 1 of 9).
Variant S26K+Y31V+N33F showed nd, nd, 3.48 (controls 1 of 9).
Variant E23K+S26E+L27K showed 3.19, 3.41, 3.86 (mean 3.49; controls 4 of 9).
Variant S26Y+Y31C+S93W showed 3.57, nd, nd (controls 1 of 9).
Variant S26H+A32S+S93K showed 3.13, nd, 4.13 (mean 3.63; controls 1 of 9).
Variant S26G+G49L+K50V showed nd, 3.50, 3.79 (mean 3.64; controls 1 of 9).
Variant S26Y+K50L+S92R showed 3.93, 3.60, nd (mean 3.76; controls 2 of 9).
Variant S26F+Y31M+R53N showed 3.79, 3.42, 4.16 (mean 3.79; controls 1 of 9).
Variant S26L showed 3.91, nd, nd (controls 5 of 9).
Variant G24M+S26T+R28D showed 3.79, 3.43, 4.56 (mean 3.93; controls 1 of 9).
Variant S26D+Y31A+S89Y showed 3.96, nd, nd (controls 3 of 9).
Variant S26A+R28S+D91L showed 3.91, 4.26, 3.76 (mean 3.98; controls 3 of 9).
Variant S26A+P54F+R90W showed 3.35, 4.20, 4.44 (mean 4.00; controls 3 of 9).
Variant S26N+R53F+Q96R showed nd, 4.00, nd (controls 2 of 9).
Variant S26P+R28C+N52I showed 3.43, nd, 4.59 (mean 4.01; controls 2 of 9).
Variant S26R+L27N+V97L showed 3.59, 4.50, nd (mean 4.04; controls 4 of 9).
Variant S26P+D91N+F95M showed nd, 3.31, 4.84 (mean 4.07; controls 3 of 9).
Variant S26E+N51R+G94C showed 4.07, nd, 4.10 (mean 4.08; controls 5 of 9).
Variant S26E+L27S showed nd, nd, 4.18 (controls 2 of 9).
Variant S26E+S55L+S92N showed nd, 4.55, nd (controls 3 of 9).
Variant S26G+S89W+D91K showed nd, 4.58, nd (controls 3 of 9).
Variant S26V+Y30L+A32L showed 5.33, 5.99, nd (mean 5.66; controls 5 of 9).
Variant S26K+L27N+S93K showed nd, nd, nd (controls 2 of 9).
Variant S26L+Y31V+F95V showed nd, nd, nd (controls 2 of 9).
Variant S26V+Y30C+S89I showed nd, nd, nd (controls 1 of 9).
Variant S26K+G49Q+G94L showed nd, nd, nd (controls 0 of 9).

The last 3 entries again:

changes,"log10 Kd, replicates","mean, log10 nM",empty controls
S26L+Y31V+F95V,"nd, nd, nd",nd,2 of 9
S26V+Y30C+S89I,"nd, nd, nd",nd,1 of 9
S26K+G49Q+G94L,"nd, nd, nd",nd,0 of 9

Background: pairings of library AAYL52 with three empty control strains gave a value in 28% of cases (median 3.91, 5th percentile 2.90). Values in that range, when seen in few replicates, are hard to tell from nonspecific mating. For each scFv, signals with the empty controls are counted beside the result.

Reference: Engelhart et al. 2022, doi:10.1038/s41597-022-01779-4. File: FLAb, binding data.